{
  "source": "patent US11247972B2",
  "about": "“Compositions and methods for treating toxoplasmosis, cryptosporidiosis, and other apicomplexan protozoan related diseases” (University of Washington through its Center for …, priority 2010, dated 2022)",
  "system": "P. falciparum",
  "parameters": "species or system Plasmodium falciparum",
  "conditions": "in vivo",
  "data": [
    {"smiles": "CCOc1ccc2cc(-c3nn(CC4CCNCC4)c4ncnc(N)c34)ccc2c1", "note": "[Compound 29, 3-(6-ethoxynaphthalen-2-yl)-1-(piperidin-4-ylmethyl)-1H-pyrazolo[3,4-d]pyrimidin-4-amine]", "values": [
      {"measurement": "infection of A. stephensi midguts", "result": "prevented"},
      {"measurement": "infective sporozoites in dissected salivary glands", "result": "complete absence"},
      {"measurement": "prevalence of oocyst infections", "result": "reduced"}
    ]}
  ]
}
